# Results reported in US10577610B2, “EpCAM aptamers and conjugates thereof” (Deakin University, priority 2015, dated 2020).
# Key:
# [1] = Description: NOD/SCID mice received a single i.v. injection of 40 nmol/Kg of transferrin/EpCAM aptamer with four various structures (TEPP: Bi3 transferrin^+/EpCAM^+; TEPN: transferrin^+/EpCAM^−; TENP: transferrin^−/EpCAM^+; TENN: Bi1 transferrin^−/EpCAM^−). The concentration of aptamers, expressed as % of injected dose (ID) per mg of tissue, in tissues indicated was determined at 30 min and 60 min after the agent administration using ELISA. Data are means±SEM (n=3).
# To evaluate the advantage of positive transferrin-modified aptamers over their negative transferrin-modified counterparts in brain uptake, the biodistribution of aptamers with four various structures (transferrin+/EpCAM+, transferrin+/EpCAM−, transferrin−/EpCAM+, transferrin−/EpCAM−) were studied at 30 min and 60 min after a single i.v. injection of these agents at a dosage of 40 nmol/Kg into NOD/SCID mice.
# [2] = In vivo fluorescent imaging after tail vein injection; conditions: 2 nmole via tail vein, Xenogen IVIS Lumina II
substance,measurement,setting,value
5′-GC GCG GTA C CG CGC TA ACG G AT TCC TTT T CC GT-3′ [aptamer 6],Uptake in brain compared with transferrin−/EpCAM−,[1]; 30 min after administration,statistically significantly higher
same,Uptake in brain compared with transferrin−/EpCAM−,[1]; 1 h after injection,no gross difference
same,Fluorescent signal strength,[2],1.25×10^10

# Where two headings read alike, the source gives them in different places.
